# The entries are a selection whose mix differs from that of the whole data set. Active and inactive are the calls of the source.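 The calls were made as follows: active = CYP2C19 inhibition above a set limit at 5 µM in the primary screen (cut at about 50% in these data); inactive = the rest.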
# The chains behind the UniProt entries cited, without tags or fusion partners.
# UniProt P33261, whole entry: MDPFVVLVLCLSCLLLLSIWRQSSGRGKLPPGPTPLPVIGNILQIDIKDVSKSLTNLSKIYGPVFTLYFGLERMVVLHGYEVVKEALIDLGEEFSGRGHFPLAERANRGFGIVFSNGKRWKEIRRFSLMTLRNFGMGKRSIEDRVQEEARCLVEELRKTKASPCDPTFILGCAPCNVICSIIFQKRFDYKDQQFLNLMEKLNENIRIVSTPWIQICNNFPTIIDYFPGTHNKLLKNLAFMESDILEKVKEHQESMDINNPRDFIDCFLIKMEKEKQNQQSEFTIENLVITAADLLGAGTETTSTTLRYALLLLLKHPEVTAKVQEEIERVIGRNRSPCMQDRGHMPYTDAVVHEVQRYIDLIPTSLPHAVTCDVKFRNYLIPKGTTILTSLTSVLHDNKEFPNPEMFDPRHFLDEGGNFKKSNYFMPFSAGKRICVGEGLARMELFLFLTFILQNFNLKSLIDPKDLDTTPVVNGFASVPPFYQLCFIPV
# Target: Cytochrome P450 2C19 (Homo sapiens) (UniProt P33261)
# Experiment: blockers of cytochrome P450 2C19 activity – biochemical, luminescence, ADME assay, primary screen (AID 778);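 also: plate controls were negative control wells for no effect and 2.5 mM tranylcypromine positive control for full effect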
# Details: CYP2C19 Supersomes, luciferin-H EGE luminescence, 30 min; at 5 µM; hits give high values
row,SMILES,inhibition
1,Cc1ccc(NP(C)(=O)Oc2ccccc2)c(C)c1 (stereo not given),active: 64.3%
2,COc1ccccc1OP(C)(=O)Nc1ccc(C)cc1 (stereo not given),active: 82.2%
3,COc1ccc(OP(C)(=O)Nc2cccc(F)c2)cc1 (stereo not given),active: 95.2%
4,CP(=S)(Nn1cnnc1)Oc1ccccc1 (stereo not given),inactive: 12.1%
5,CP(=O)(NC(=O)Nc1ccccc1)Oc1ccccc1 (stereo not given),inactive: -10.4%
6,CCOP(C)(=S)SCC(=O)NC(C)C(=O)O (stereo not given),inactive: 24.6%
7,CP(=O)(Nc1ccccn1)Oc1ccc(Cl)cc1 (stereo not given),inactive: 44.4%
8,Cc1nc2ccc3ccccc3c2s1.O=[N+]([O-])c1cc([N+](=O)[O-])c(O)c([N+](=O)[O-])c1,inactive: 7.8%
9,Cc1cc(C)cc(OP(C)(=O)Nc2ccc(C)cc2C)c1 (stereo not given),active: 88.3%
10,Cc1cc(C)cc(OP(C)(=O)Nc2ccccn2)c1 (stereo not given),active: 50.1%
11,Cc1ccc(C)c(NP(C)(=O)Oc2ccccc2)c1 (stereo not given),inactive: 23.8%
12,CP(=O)(Nc1ccccc1F)Oc1ccccc1 (stereo not given),inactive: 24.5%
13,CP(=O)(Nc1ccccc1)Oc1ccc(F)cc1 (stereo not given),inactive: 21.5%
14,COc1ccc(OP(C)(=O)Nc2cccc(Br)c2)cc1 (stereo not given),active: 73.5%
15,CN(C)CCOC(=O)C(O)(c1ccccc1)C1CCCCC1 (stereo not given),active: 50.3%
16,CCOP(C)(=S)SCC(=O)NC(C)(CC)C(=O)O (stereo not given),inactive: -8.7%
17,Cc1ccccc1NP(C)(=O)Nc1ccccc1C,active: 83.6%
18,CCN(CC)CC(O)COC(=O)C(O)(c1ccccc1)C1CCCCC1 (stereo not given),inactive: 2.1%
19,CP(=O)(Oc1ccccc1)N1CCOC1=O (stereo not given),inactive: 4.2%
20,COc1ccccc1OP(C)(=O)Nc1c(C)n(C)n(-c2ccccc2)c1=O (stereo not given),inactive: 2.8%
21,CC(C)(C)c1ccc(OP(C)(=O)O)cc1,inactive: -9%
22,CP(=O)(OC12CC3CC(CC(C3)C1)C2)OC12CC3CC(CC(C3)C1)C2,inactive: -20.2%
23,COc1ccccc1OP(C)(=O)Nc1ccc(C)c(C)c1 (stereo not given),active: 88.8%
24,Cc1nc2ccc3ccccc3c2o1.O=[N+]([O-])c1cc([N+](=O)[O-])c(O)c([N+](=O)[O-])c1,inactive: -10.2%
25,CN(C)CCOC(=O)C(O)(c1ccccc1)C1CCCC1 (stereo not given),inactive: 12.2%
26,COc1ccc(OP(C)(=O)Nc2ccccn2)cc1 (stereo not given),inactive: 45.5%
27,Cc1c(NP(C)(=O)Oc2ccc(C(C)C)cc2)c(=O)n(-c2ccccc2)n1C (stereo not given),inactive: 8.6%
28,CCc1ccc(OP(C)(=O)O)cc1,inactive: 3.1%
29,COc1ccccc1OP(C)(=O)Nc1ccc(C)cc1C (stereo not given),inactive: 30.3%
30,CP(=O)(Nc1ccccn1)Oc1ccccc1 (stereo not given),inactive: 6.4%
